Apparent affinities of Ab-14 variants for a coronavirus HR2 peptide

Target: peptide PDVDLGDISGINAS, taken from heptad repeat 2 (HR2) of SARS-CoV-2 spike.

Ab-14 is the parent antibody, in scFv form: VH, then the linker GGGGSGGGGSGGGGS, then VL. The heavy chain is unchanged in all variants.
VH: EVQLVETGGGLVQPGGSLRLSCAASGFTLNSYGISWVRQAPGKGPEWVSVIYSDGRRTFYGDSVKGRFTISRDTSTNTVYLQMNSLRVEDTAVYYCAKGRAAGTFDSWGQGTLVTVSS
VL: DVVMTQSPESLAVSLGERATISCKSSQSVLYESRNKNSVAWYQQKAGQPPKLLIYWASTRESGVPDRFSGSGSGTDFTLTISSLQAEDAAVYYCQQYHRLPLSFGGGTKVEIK

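The parent was found by panning a naive human phage display library on the peptide. Library AAYL50 holds single substitutions and randomly drawn double and triple substitutions in the CDRs. AlphaSeq pools MATa yeast showing the antibodies with MATalpha yeast showing the peptide. Binding brings cells together so that they mate, and sequencing counts the barcode pairs among the diploids. Scores were corrected for input abundance and mapped to Kd with protein pairs of known affinity run in the same pool. Mating was done three times.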

Sequences are complete VL domains.
Values are log10 of the apparent Kd in nM; lower means stronger binding.
Averages over replicates are reported, and they cover detected replicates only.
"nd" means that the variant was in the library but no mating with the target was seen in any replicate; the authors take this as a sign of poor binding, and no number exists.

| log10 Kd (nM), mean | detected | signal with controls | VL |
|---|---|---|---|
| nd | 0 of 3 | 0 of 9 | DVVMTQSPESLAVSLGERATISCKSSCSVLYESRNKNSVWWYQQKAGQPPKLLIYWASTREYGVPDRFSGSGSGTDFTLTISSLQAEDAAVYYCQQYHRLPLSFGGGTKVEIK |
| 2.29 | 3 of 3 | 0 of 9 | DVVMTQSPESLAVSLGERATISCKSCQSMLYESRNKNSVAWYQQKAGQPPKLLIYWASTRESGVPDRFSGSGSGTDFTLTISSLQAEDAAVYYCQQYHRLPLSFGGGTKVEIK |
| 3.15 | 3 of 3 | 2 of 9 | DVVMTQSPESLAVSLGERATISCKSSQSILYESRNKNSVAWYQQKAGQPPKLLIYWASTIESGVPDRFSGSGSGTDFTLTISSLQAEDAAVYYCQQYHRLPLFFGGGTKVEIK |
| 2.62 | 3 of 3 | 1 of 9 | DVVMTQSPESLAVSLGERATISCKHSQSVLYRSRNKNSVAWYQQKAGQPPKLLIYLASTRESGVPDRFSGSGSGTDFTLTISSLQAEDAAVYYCQQYHRLPLSFGGGTKVEIK |
| 1.59 | 3 of 3 | 3 of 9 | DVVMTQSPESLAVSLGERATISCKTSWSVLYESRNKNSVAWYQQKAGQPPKLLIYWASTRESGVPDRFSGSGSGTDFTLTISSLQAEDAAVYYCQQYHMLPLSFGGGTKVEIK |
| 3.24 | 3 of 3 | 2 of 9 | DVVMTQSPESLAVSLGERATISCKSSQSVLYESRNKNSVCWYQQKAGQPPKLLIYWAETRESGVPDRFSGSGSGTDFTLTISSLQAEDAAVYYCQQYHRLPLSFGGGTKVEIK |
| 3.97 | 1 of 3 | 1 of 9 | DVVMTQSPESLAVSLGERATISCKSAQSVLYESRNKNSSAWYQQKAGQPPKLLIYWASSRESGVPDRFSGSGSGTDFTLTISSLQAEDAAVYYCQQYHRLPLSFGGGTKVEIK |
| 1.07 | 3 of 3 | 1 of 9 | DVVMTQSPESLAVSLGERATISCKSSQSELYESRNKNSVAWYQQKAGQPPKLLIYWASHREWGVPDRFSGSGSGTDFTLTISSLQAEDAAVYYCQQYHRLPLSFGGGTKVEIK |
| 0.13 | 3 of 3 | 1 of 9 | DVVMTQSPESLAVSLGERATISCKISQSVLYESRNVNSVAWYQQKAGQPPKLLIYWASTRESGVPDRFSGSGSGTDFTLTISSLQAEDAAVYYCQQVHRLPLSFGGGTKVEIK |
| nd | 0 of 3 | 2 of 9 | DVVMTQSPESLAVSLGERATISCKSSQSVIYESRNKNSVAWYQQKAGQPPKLLIYWASTLESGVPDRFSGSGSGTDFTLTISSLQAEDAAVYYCQQYPRLPLSFGGGTKVEIK |
| nd | 0 of 3 | 2 of 9 | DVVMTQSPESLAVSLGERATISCKSSQSVLYESRWKNCVAWYQQKAGQPPKLLIYWASTRESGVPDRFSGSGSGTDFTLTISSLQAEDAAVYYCQQYHRLHLSFGGGTKVEIK |
| 0.67 | 3 of 3 | 0 of 9 | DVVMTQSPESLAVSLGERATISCKSSQSVLSESRNKNSVAWYQQKAGQPPKLLIYWATTRVSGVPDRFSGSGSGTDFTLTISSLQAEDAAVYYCQQYHRLPLSFGGGTKVEIK |
| 2.79 | 3 of 3 | 1 of 9 | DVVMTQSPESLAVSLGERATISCKSSQSVLEESRNKNSVGWYQQKAGQPPKLLIYWASTRESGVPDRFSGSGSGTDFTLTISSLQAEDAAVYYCQQYYRLPLSFGGGTKVEIK |
| 1.73 | 3 of 3 | 1 of 9 | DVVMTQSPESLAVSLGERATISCKSSVSVLYEIRNKNSVAWYQQKAGQPPKLLIYWASTRESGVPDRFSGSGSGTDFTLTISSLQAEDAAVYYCQQYHSLPLSFGGGTKVEIK |
| -0.17 | 3 of 3 | 7 of 9 | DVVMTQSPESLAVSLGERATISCKSSQSTLYEARNKNSVAWYQQKAGQPPKLLIYQASTRESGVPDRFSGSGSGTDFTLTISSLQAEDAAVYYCQQYHRLPLSFGGGTKVEIK |
| nd | 0 of 3 | 3 of 9 | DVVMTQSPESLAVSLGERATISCKSSQSVLYESRNKNSVAWYQQKAGQPPKLLIYWASCRESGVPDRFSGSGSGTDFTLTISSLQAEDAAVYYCQQSHRLPLSFGGGTKVEIK |
| nd | 0 of 3 | 1 of 9 | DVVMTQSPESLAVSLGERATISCKSSQSVLYESRPKNMVAWYQQKAGQPPKLLIYWASTRESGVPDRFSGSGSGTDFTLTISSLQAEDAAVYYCQQYHRLGLSFGGGTKVEIK |
| nd | 0 of 3 | 0 of 9 | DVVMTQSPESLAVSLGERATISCKSSQSVLYESYNKNSVAWYQQKAGQPPKLLIYWASTRESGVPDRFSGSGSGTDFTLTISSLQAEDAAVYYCYQYHRLPLSFGGGTKVEIK |
| 2.15 | 3 of 3 | 2 of 9 | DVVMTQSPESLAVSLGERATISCNSSQSRLYEGRNKNSVAWYQQKAGQPPKLLIYWASTRESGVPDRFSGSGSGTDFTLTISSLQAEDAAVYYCQQYHRLPLSFGGGTKVEIK |
| 2.66 | 3 of 3 | 1 of 9 | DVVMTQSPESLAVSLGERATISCKSSQKVLYESRNKPSVAWYQQKAGQPPKLLIYWASTRESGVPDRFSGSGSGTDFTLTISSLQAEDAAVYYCQQYHDLPLSFGGGTKVEIK |
| 4.02 | 2 of 3 | 1 of 9 | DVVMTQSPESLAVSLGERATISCKSAQSVLYEFRNKNSVAWYQQKAGQPPKLLIYWASTRESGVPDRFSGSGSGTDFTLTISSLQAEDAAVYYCQQYHLLPLSFGGGTKVEIK |
| 3.03 | 3 of 3 | 1 of 9 | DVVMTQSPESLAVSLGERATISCKSSQSCLYESRNKNSVAWYQQKAGQPPKLLIYWASTRESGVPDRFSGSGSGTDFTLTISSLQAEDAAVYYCQQYKRYPLSFGGGTKVEIK |
| nd | 0 of 3 | 0 of 9 | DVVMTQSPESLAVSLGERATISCKSSQSDLYESRNKNSVAWYQQKAGQPPKLLIYWMSTRESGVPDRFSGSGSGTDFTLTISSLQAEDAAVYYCQQTHRLPLSFGGGTKVEIK |
| 0.32 | 3 of 3 | 0 of 9 | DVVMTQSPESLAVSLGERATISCKSSQSVLYESRNKNSVAWYQQKAGQPPKLLIYEASTRPSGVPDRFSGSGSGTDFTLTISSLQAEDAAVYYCQQYHNLPLSFGGGTKVEIK |
| 3.35 | 3 of 3 | 2 of 9 | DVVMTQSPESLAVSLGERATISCKWSQSKLYESRNKTSVAWYQQKAGQPPKLLIYWASTRESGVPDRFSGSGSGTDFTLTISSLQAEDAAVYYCQQYHRLPLSFGGGTKVEIK |

The 2 strongest on average among those seen in every replicate, once more:

{"VL": "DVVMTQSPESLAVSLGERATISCKSSQSTLYEARNKNSVAWYQQKAGQPPKLLIYQASTRESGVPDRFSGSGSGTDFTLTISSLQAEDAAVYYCQQYHRLPLSFGGGTKVEIK", "log10 Kd (nM), mean": "-0.17", "detected": "3 of 3", "signal with controls": "7 of 9"}
{"VL": "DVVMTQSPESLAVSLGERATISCKISQSVLYESRNVNSVAWYQQKAGQPPKLLIYWASTRESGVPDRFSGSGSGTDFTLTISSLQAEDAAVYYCQQVHRLPLSFGGGTKVEIK", "log10 Kd (nM), mean": "0.13", "detected": "3 of 3", "signal with controls": "1 of 9"}

For reference, the parent read 0.65 as the reference entry and 1.68 as a member of this library.
Empty control strains, which show no peptide, gave a signal in 18% of pairings with library AAYL50; the median was 4.19 and 95% of these signals were weaker than 2.99. No background was subtracted. Also given: how often the same scFv was detected with the empty control strains.

Reference: Engelhart et al. 2022, doi:10.1038/s41597-022-01779-4. File: FLAb, binding data.